In paper PMC3226499, “Environmental Impact on Vascular Development Predicted by High-Throughput Screening” (Environmental Health Perspectives, 2011) one finds VBS data, which are given here for one compound.

The test has as its system six prioritized vascular targets (VEGFR2, TIE2, CCL2, PAI-1, CXCL10, uPAR). Kind of test: Vascular bioactivity score (VBS): weighted sum of activity across 23 ToxCast assays. On the set-up: species or system human. The following applies: pVDCs with rabbit-specific effects.

For the compound `CC(C)OP(=S)(OC(C)C)SCCNS(=O)(=O)c1ccccc1`, the VBS came to 2.17.
